Experimental findings from PMC12648656, “Palladium(II) Complexes with Noncovalent Interactions with DNA: Solution Speciation Controlled by Solvent Identity, pH, and Concentration” (Inorganic Chemistry, 2025) are described below.

Common to all, as to format: physicochemical
Data set [1] can be described thus: n-Octanol/water and n-octanol/Tris buffer shake-flask partitioning. How it is done:
The distribution coefficient values (D 7.4) of the compounds were determined by the traditional shake-flask method in n-octanol/buffered aqueous solution at pH 7.40 for 5 mM Tris HCl with 0.1 M KCl and at pH 7.4 at 25.0 ± 0.2 °C. The ligand and complexes were dissolved in n-octanol (presaturated by the aqueous buffer) because of the very low aqueous solubility. The aqueous buffer solution and n-octanol ratio was 1:1 due to the expected high lipophilicity of the compounds. First, samples were mixed with vertical rotation (∼20 rpm) for 3 h, and then the two phases were separated by centrifugation at 3000 rpm (∼1000g) for 3 min. After separation, UV–vis spectra of the compounds were recorded in both phases. Spectra of the n-octanol phases were compared to those of the original n-octanol stock solutions.
The distribution coefficient values were also determined using unbuffered water and octanol (also presaturated) with a ratio of 1:1.

Data set [2] is described as follows: Stability in physiological buffers (Tris, phosphate, HEPES) by UV-vis. Particulars: pH 7.4, 0.1 M chloride. The procedure:
The reaction of the metal complexes (2) and (3) with buffer components was followed in an array of DMSO percentages, from 1% to 60% (v/v) DMSO/H2O (pH 7.4) medium. The samples were prepared by dilution of the stock solution of the respective complex in DMSO (5 mM) with 5 mM Tris 1% (v/v) DMSO/H2O or 5 mM phosphate buffers 60% (v/v) DMSO/H2O (pH 7.40 in both cases), reaching a final concentration of 10^–6 to 10^–4 M. The UV–vis spectra of the final samples were followed over time at 37 °C for up to 24 h.

A short description of data set [3]: HPLC analysis of aqueous solution integrity. Particulars: 20 μM in 3% DMSO aqueous solution, after 24 h, 254 nm. The procedure:
Ligand, complex (2), and complex (3) solutions were prepared fresh as described in the UV–vis stability assay. Prior to the injection to the column, 20 μL was taken and diluted with 180 μL of HPLC-grade acetonitrile at various time points (t = 0 and 24 h). 20 μL of this diluted sample was injected in the Zorbax Eclipse Plus C18 column (4.6 × 100 mm, 3.5 μm): flow rate, 1 mL/min; detection, UV 254 nm; flow solvent system A/B (acetonitrile/water, v/v): 70:30 and analyzed with 254 nm radiation up to 10 min.

Data set [4] can be described thus: Stability and DMSO coordination in DMSO by 1H NMR. Particulars: pure DMSO. How it is done: (a) Complex (2) solutions in DMSO (D2O) investigated by NMR spectroscopy: Trying to investigate if the higher concentration is responsible for the complex transformation process in DMSO, we monitored the solution of complex (2) at 0.5 and 1 mM by ^1H NMR spectroscopy (Figure a). We could clearly see that complex (2) is only detected pure at a concentration of 0.5 mM. As the concentration of complex (2) increases, the molar fraction of a new coordinated species (complex (3)) gradually rises from 0% (Figure a(3)) at 0.5 mM to 8% at 3 mM (Figure a(1)).
NMR spectra were recorded at room temperature, using a two-channel 300 MHz Bruker Avance III-HD Nanobay spectrometer equipped with a 5 mm BBO 1H/X probe and Z gradients, located at the Interdepartmental Investigation Service (SIdI). […] Mass spectra were recorded using FAB (fast atom bombardment) in a Waters VG AutoSpec mass spectrometry unit and using MALDI (matrix-assisted laser desorption/ionization) with a Bruker Ultraflex III (MALDI-TOF/TOF) mass spectrometry unit, both located at SIdI. Infrared (IR) spectra were recorded using a PerkinElmer Model 283 spectrometer with an attenuated total reflectance (ATR) MIRacle Single Reflection Horizontal accessory and equipped with CsI optical windows for spectra between 600 and 200 cm^–1 in Nujol mull preparations. […]

The nature of a further data set: Solubility observations. Particulars: as observed; aqueous solution for HL.

Consider “Chlorido(dimethyl sulfoxide)(1H-imidazole-4-carboxaldehyde-4N-p-chlorophenylthiosemicarbazonato)palladium(II) [(3)]”, for which the “log D o/t” value in data set [1] (n-octanol/5 mM Tris HCl with 0.1 M KCl, pH 7.40, 25.0 °C) is on record as “+1.94 ± 0.04”. Also, the “log D o/w” value in data set [1] (n-octanol/pure (unbuffered) water, 1:1) is “+1.11 ± 0.06”. In addition, the “behaviour in HEPES buffer” value in data set [2] (HEPES, 60% DMSO) is “formed precipitation”. In addition, the “behaviour in phosphate buffer” value in data set [2] (phosphate, 3% (v/v) DMSO) is given as “precipitated”. Besides, the “integral of the HPLC signal of intact complex” value in data set [3] is on record as “only slightly diminished”. Besides, the time without changes entry in data set [4] was “more than 3 days”.
Take “Di-μ-chlorido-bis(1H-imidazole-4-carboxaldehyde-4N-p-chlorophenylthiosemicarbazonato)dipalladium(II) [(1)]”: in the data set “Solubility observations”, the solubility entry is listed as “poor solubility”.
